{
  "sequences": {"note": "Protein sequences, listed by entry. Tags and fused reporters are not part of them.", "UniProt P35372, whole entry": "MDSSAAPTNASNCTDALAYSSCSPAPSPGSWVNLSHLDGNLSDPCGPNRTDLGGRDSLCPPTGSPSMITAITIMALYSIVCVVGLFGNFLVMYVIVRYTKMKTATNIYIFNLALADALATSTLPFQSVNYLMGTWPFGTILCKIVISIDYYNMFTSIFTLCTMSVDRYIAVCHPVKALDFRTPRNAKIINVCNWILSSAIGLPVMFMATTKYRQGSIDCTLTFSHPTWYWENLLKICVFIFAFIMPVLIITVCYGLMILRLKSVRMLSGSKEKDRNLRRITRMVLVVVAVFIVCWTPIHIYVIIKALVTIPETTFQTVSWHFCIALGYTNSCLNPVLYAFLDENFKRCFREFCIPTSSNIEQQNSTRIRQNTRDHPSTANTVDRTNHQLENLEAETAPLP"},
  "source": "patent US9962447B2",
  "about": "“Supramolecular aggregates comprising maleimido cores” (UFPEPTIDES S.R.L., priority 2013, dated 2018)",
  "target": "MOP receptor (Homo sapiens, UniProt P35372)",
  "assay": "Calcium mobilization in CHO cells expressing MOP receptor and Gαqi5",
  "assay_type": "cell-based",
  "settings": "inactive = inactive up to 1 μM",
  "protocol": "Cell cultures were kept at 37° C. in 5% CO2 humidified air. In all cases experimental cultures were free from selection agents (hygromycin B, G418). When confluence was reached (3-4 days), cells were sub-cultured as required using trypsin EDTA and used for experimentation. Cells were seeded at a density of 50,000 cells/well into 96-well black, clear-bottom plates. After 24 hours incubation the cells were loaded with medium supplemented with 2.5 mM probenecid, 3 μM of the calcium sensitive fluorescent dye Fluo-4 AM and 0.01% pluronic acid, for 30 min at 37° C. Afterwards the loading solution was aspirated and 100 μl/well of assay buffer: Hank's Balanced Salt Solution (HBSS) supplemented with 20 mM HEPES, 2.5 mM probenecid and 500 μM Brilliant Black (Aldrich) was added. […] On-line additions were carried out in a volume of 50 μl/well. To facilitate drug diffusion into the wells in antagonist type experiments, the present studies were performed at 37° C. and three cycles of mixing (25 μl from each well moved up and down 3 times) were performed immediately after antagonist injection to the wells.\nFour mice were monitored in parallel. […] Animals locomotion was recorded for 60 min.",
  "note": "pEC50: −log10 of the molar value.",
  "data": [
    {"smiles": "C[C@@H](NC(=O)[C@@H](N)Cc1ccc(O)cc1)C(=O)N[C@@H](Cc1ccccc1)C(=O)NCC(=O)N[C@@H](Cc1ccc(O)cc1)C(=O)N1CCC[C@H]1C(=O)N[C@@H](CO)C(N)=O", "note": "[Dermorphin]", "values": [
      {"measurement": "pEC50", "result": 9.29}
    ]}
  ]
}
